The structures appear in SMILES notation. The entries are a selection whose mix differs from that of the whole data set. Activity calls are given as the source filed them. How the source made its calls: active means hit-call score of the fitted dose curve at least 0.9, where 1 is the maximum; inactive means score below 0.9.

Sequences of proteins named here, by UniProt entry; tags and fusion partners are left off.
UniProt P08684, whole entry, looked up: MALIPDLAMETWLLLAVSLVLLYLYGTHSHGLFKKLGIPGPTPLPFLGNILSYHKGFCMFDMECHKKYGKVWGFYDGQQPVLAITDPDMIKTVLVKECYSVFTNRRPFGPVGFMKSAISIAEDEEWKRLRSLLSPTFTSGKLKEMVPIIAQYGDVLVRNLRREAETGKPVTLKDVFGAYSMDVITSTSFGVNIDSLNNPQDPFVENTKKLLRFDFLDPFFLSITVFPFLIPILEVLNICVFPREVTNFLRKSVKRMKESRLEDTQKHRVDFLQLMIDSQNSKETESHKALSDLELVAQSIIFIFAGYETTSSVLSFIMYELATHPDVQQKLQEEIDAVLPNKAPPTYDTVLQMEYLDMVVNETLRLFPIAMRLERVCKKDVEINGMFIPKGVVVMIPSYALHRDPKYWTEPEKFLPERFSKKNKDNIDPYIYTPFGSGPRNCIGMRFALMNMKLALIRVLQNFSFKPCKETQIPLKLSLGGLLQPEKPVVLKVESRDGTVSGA
UniProt P01133, whole entry, looked up: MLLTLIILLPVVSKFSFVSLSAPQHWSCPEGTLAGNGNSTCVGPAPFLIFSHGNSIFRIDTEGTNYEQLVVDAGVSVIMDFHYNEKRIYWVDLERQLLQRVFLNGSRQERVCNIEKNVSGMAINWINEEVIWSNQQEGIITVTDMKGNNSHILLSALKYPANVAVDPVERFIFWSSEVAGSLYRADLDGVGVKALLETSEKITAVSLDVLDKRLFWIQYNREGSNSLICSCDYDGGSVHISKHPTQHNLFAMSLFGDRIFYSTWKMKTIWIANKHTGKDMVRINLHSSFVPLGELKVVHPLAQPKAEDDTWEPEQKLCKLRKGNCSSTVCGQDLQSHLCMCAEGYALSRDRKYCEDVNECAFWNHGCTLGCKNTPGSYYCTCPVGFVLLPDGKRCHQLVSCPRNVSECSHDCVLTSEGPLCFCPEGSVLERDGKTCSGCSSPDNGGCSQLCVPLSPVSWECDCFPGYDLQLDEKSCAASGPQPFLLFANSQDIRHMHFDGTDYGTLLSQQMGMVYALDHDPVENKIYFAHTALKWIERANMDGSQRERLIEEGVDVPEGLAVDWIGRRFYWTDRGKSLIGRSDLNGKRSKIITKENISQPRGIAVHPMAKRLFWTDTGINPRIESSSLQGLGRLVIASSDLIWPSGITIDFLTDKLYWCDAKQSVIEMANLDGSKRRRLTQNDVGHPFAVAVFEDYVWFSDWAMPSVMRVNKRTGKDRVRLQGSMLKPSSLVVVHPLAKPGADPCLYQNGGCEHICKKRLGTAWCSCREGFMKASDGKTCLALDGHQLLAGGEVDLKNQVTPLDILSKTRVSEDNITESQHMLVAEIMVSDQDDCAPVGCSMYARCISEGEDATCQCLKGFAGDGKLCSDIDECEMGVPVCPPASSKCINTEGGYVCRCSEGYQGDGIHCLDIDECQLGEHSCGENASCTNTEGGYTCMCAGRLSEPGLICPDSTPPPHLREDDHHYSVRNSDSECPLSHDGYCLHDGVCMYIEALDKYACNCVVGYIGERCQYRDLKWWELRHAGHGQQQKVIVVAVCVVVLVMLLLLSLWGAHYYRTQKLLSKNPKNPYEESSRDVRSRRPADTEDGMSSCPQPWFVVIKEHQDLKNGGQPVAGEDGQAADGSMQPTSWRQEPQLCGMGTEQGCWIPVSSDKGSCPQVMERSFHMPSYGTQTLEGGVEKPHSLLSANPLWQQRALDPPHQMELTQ
UniProt P33261, whole entry, looked up: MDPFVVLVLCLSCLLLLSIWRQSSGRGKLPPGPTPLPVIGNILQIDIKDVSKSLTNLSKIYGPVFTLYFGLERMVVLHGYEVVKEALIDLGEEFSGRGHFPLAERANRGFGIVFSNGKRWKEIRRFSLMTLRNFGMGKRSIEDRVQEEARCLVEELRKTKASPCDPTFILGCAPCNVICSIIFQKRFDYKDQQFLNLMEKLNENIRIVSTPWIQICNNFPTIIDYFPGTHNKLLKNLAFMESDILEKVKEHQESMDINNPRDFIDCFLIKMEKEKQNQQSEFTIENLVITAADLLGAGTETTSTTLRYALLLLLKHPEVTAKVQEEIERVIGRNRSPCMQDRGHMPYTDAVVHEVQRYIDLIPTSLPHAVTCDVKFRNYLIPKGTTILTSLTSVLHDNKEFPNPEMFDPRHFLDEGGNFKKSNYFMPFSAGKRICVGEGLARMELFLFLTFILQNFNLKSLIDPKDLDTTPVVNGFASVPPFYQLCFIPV

What all share (settings): actives raise or lower the signal; mRNA level, 48 h
Read-out in experiment [1]: CYP2C8 (gene 1558)
The experiment can be described thus: LTEA_HepaRG_CYP2C8: Life Technologies and Expression Analysis (LTEA) Assay for CYP2C8 using HepaRG (AID 2283483). The gist of the method: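 Differentiated HepaRG cells in serum-free induction medium exposed 48 h in duplicate to 8 half-log concentrations from 100 uM in 0.5% DMSO. CYP2C8 mRNA by qRT-PCR normalized to ACTB, GAPDH, POLR2A; bidirectional fit versus DMSO.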

Read-out in experiment [2]: CYP2C9 (gene 1559)
Briefly: LTEA_HepaRG_CYP2C9: Life Technologies and Expression Analysis (LTEA) Assay for CYP2C9 using HepaRG (AID 2283484). The gist of the method: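 Differentiated human HepaRG cells in serum-free induction medium were exposed 48 h to chemicals in 8-point half-log series from 100 uM (0.5% DMSO), in duplicate. CYP2C9 mRNA was measured by qRT-PCR, normalized to ACTB/GAPDH/POLR2A, with bidirectional fitting versus DMSO.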

Read-out in experiment [3]: CYP4A11 (gene 1579)
The experiment can be described thus: LTEA_HepaRG_CYP4A11: Life Technologies and Expression Analysis (LTEA) Assay for CYP4A11 using HepaRG (AID 2283486). The gist of the method:
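Readout is CYP4A11 transcript level by qRT-PCR, normalized to three housekeeping genes and fitted bidirectionally against 0.5% DMSO. Human HepaRG cells were treated 48 h, in duplicate, with an 8-point half-log series topping at 100 uM.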

Read-out in experiment [4]: Cytochrome P450 3A4 (Homo sapiens) (UniProt P08684)
The experiment can be described thus: LTEA_HepaRG_CYP3A4: Life Technologies and Expression Analysis (LTEA) Assay for CYP3A4 using HepaRG (AID 2283487). The gist of the method:
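Differentiated HepaRG cells in serum-free induction medium exposed in duplicate for 48 h to 8 half-log concentrations up to 100 uM in 0.5% DMSO. CYP3A4 mRNA measured by qRT-PCR normalized to ACTB, GAPDH and POLR2A; bidirectional fit versus DMSO.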

Read-out in experiment [5]: DNA damage-inducible transcript 3 (DDIT3), DDIT3 (gene 1649)
The experiment can be described thus: LTEA_HepaRG_DDIT3: Life Technologies and Expression Analysis (LTEA) Assay for DNA damage-inducible transcript 3 (DDIT3) using HepaRG (AID 2283488). The gist of the method:
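HepaRG plated 48 h, switched to serum-free induction medium, dosed 48 h (100 uM top, half-log, 8 pts, 0.5% DMSO, n=2); RNA isolated; DDIT3 by qRT-PCR; bidirectional curve fit vs DMSO.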

Read-out in experiment [6]: Pro-epidermal growth factor (Homo sapiens) (UniProt P01133)
Briefly: LTEA_HepaRG_EGF: Life Technologies and Expression Analysis (LTEA) Assay for Epidermal growth factor (EGF) using HepaRG (AID 2283489). The gist of the method:
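EGF transcript measured by Fluidigm TaqMan qRT-PCR with three housekeeping genes for normalization, 48 h after dosing HepaRG cultures in duplicate (top 100 uM, half-log steps, 0.5% DMSO vehicle). Gain or loss relative to DMSO fitted.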

Read-out in experiment [7]: Early growth response protein 1 (EGR1) transcription factor, EGR1 (gene 1958)
Briefly: LTEA_HepaRG_EGR1: Life Technologies and Expression Analysis (LTEA) Assay for Early growth response protein 1 (EGR1) transcription factor using HepaRG (AID 2283490). The gist of the method:
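Differentiated HepaRG cells in serum-free induction medium exposed 48 hours, duplicate, to 8 half-log concentrations up to 100 uM in 0.5% DMSO. EGR1 mRNA measured by TaqMan qRT-PCR, normalized to ACTB, GAPDH, POLR2A; bidirectional fit versus DMSO.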

Read-out in experiment [8]: Ezrin (EZR), EZR (gene 7430)
Briefly: LTEA_HepaRG_EZR: Life Technologies and Expression Analysis (LTEA) Assay for Ezrin (EZR) using HepaRG (AID 2283491). The gist of the method:
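Differentiated human HepaRG cells, 48 h after plating, were exposed in serum-free induction medium for 48 hours to eight half-log concentrations up to 100 uM in 0.5% DMSO. EZR mRNA was measured by TaqMan qRT-PCR, normalized to ACTB, GAPDH and POLR2A, and fitted bidirectionally against DMSO.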

Read-out in experiment [9]: Cytochrome P450 2C19 (Homo sapiens) (UniProt P33261)
Briefly: LTEA_HepaRG_CYP2C19: Life Technologies and Expression Analysis (LTEA) Assay for CYP2C19 using HepaRG (AID 2283482). The method, then:
LTEA_HepaRG is a cell based, multiplexed-readout assay that uses HepaRG, a human liver cell line, with measurements taken at 48 hours after chemical dosing on a 96-well plate.LTEA_HepaRG_CYP2C19 is one of 102 assay component(s) measured in the LTEA HepaRG cell culture assay. It is a marker of NR mediated metabolism.Data from the assay component LTEA_HepaRG_CYP2C19 was analyzed into 1 endpoint. This assay endpoint, LTEA_HepaRG_CYP2C19, was analyzed with bidirectional fitting relative to DMSO as the negative control and baseline of activity. Using a type of inducible reporter, measures of mRNA induction for gain or loss-of-signal activity can be used to understand regulation of transcription factor activity. To generalize the intended target to other relatable targets, this assay endpoint is annotated to the cyp intended target family, where the subfamily is xenobiotic metabolism.
A total of 1060 chemcials from the ToxCast library were tested in eight-point concentration-response experiments. Cell culture and cytotoxicity assays were conducted at Thermo Fisher Scientific's Custom Services facility (Madison, WI). A single lot of human HepaRG cells (Thermo Fisher Scientific, Frederick, MD) was used for the cell culture experiments. 96-well format collagen type I coated plates of human HepaRG cells were prepared using established methods. Briefly, cryopreserved HepaRG cells were thawed, plated at a density of approximately 100,000 cells/well in HepaRG Thaw, Plate, and General Purpose media (HPRG770, Thermo Fisher Scientific), and incubated for 48 hours. […] Fluidigm's 96.96 Dynamic ArrayTM (Fluidigm, Amsterdam, the Netherlands) technology was used for gene expression analyses by quantitative reverse transcription polymerase chain reaction (qRT-PCR, performed by Quintiles/Expression Analysis, Durham, NC)89. […]

Read-out in experiment [10]: CYP2E1 (gene 1571)
The experiment can be described thus: LTEA_HepaRG_CYP2E1: Life Technologies and Expression Analysis (LTEA) Assay for CYP2E1 using HepaRG (AID 2283485). The gist of the method: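 Human liver line HepaRG, plated 48 h, then serum-free induction medium + chemical x 48 h; 8-pt CRC from 100 uM, half-log, 0.5% DMSO, n=2. Readout: CYP2E1 mRNA qRT-PCR vs ACTB/GAPDH/POLR2A; bidirectional fit vs DMSO.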

As to `Cc1cc([N+](=O)[O-])cc([N+](=O)[O-])c1O`, the AC50 in [1] is active: 10.8 µM; in [2], active: 8.89 µM; in experiment [3], active: 10.2 µM; in experiment [4], active: 6.44 µM; in [5], active: 65.9 µM; in [6], active: 3.35 µM. Further, the AC50 in [8] is active: 50 µM. For the same compound, in [7], the compound was called inactive.
On to `CN(C(=O)Cc1cccc2occc12)[C@H]1CC[C@@]2(CCCO2)C[C@@H]1N1CCCC1`, for which the results for the AC50 in experiment [9], in experiment [10] and in [4] were active: 21.5 µM, active: 30 µM and active: 21.3 µM, respectively. Moreover, the result in experiment [1], in [2], in experiment [3], in experiment [5], in [6] and in experiment [7] was inactive. For the same compound, in [8], the result was inactive.
Turning to `O=C1C2CC=CCC2C(=O)N1SC(Cl)(Cl)C(Cl)Cl` (stereo unspecified), the result in experiment [9], in [1], in experiment [2], in [5], in experiment [6] and in [7] was inactive. Besides, the result in [8] was inactive. Also, in experiment [3], the AC50 is active: 9.92 µM.
On to `CC(C)OP(=S)(OC(C)C)SCCNS(=O)(=O)c1ccccc1`, for which the concentration at half-maximal activity (AC50) was active: 85.2 µM in experiment [9]; active: 83.7 µM in experiment [1]; active: 84.2 µM in experiment [2]; active: 10.1 µM in experiment [10]; active: 50 µM in experiment [3]; active: 88.5 µM in [4]. Further, the AC50 was active: 72.4 µM in experiment [5] and active: 81 µM in experiment [7]. Besides, the call in experiment [6] and in experiment [8] was inactive.

One may read the AC50 as the concentration giving half of the maximal activity seen.

These data come from PubChem BioAssay (EPA / NIEHS).
